From PMC6767919 (European journal of pharmacology, 2019)

Protein sequences, listed by entry. Tags and fused reporters are not part of them. Residues count along the entry.
UniProt P28335, 33-458 S407A: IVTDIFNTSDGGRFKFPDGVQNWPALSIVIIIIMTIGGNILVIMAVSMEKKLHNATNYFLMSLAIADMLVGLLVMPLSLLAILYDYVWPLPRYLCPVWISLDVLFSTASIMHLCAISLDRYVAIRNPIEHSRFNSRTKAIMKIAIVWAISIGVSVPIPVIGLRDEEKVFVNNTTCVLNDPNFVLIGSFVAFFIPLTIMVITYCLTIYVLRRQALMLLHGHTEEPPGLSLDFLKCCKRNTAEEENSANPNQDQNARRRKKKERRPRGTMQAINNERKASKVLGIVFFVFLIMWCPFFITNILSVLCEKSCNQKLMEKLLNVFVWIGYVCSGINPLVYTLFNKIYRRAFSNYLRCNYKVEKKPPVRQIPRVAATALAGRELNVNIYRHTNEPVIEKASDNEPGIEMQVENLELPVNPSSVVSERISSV
UniProt P28335, 33-458: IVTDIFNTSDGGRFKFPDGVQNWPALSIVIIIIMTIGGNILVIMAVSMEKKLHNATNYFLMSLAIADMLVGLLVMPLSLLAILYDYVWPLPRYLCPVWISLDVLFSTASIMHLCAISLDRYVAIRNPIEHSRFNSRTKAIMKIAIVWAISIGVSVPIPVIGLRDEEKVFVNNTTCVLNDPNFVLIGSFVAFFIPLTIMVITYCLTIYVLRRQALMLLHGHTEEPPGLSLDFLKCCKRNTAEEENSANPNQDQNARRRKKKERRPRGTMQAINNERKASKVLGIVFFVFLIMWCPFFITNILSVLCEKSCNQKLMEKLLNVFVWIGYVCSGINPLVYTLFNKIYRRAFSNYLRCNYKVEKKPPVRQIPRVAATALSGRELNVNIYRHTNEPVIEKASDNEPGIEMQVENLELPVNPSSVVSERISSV

Assays:
S407A 5-HT2C receptor = S407A 5-HT2C receptor (Homo sapiens, UniProt P28335, S407A); assay: IP production and agonist-induced desensitization at the S407A 5-HT2C receptor; assay type: cell-based
[1] = target: human 5-HT2C–INI (wild-type, WT) receptor (Homo sapiens, UniProt P28335); assay: cell-based

What does the source list for `Clc1cccc(N2CCNCC2)c1` [mCPP, 1-(3-chlorophenyl)piperazine]?
EC50 (S407A 5-HT2C receptor): 0.00708 µM; EC50 [1]: 0.0389 µM
